The values below are quoted from earlier work in patent US8497245B2, “Trypsin-like serine protease inhibitors, their preparation and use as selective inhibitors of the clotting factors IIa and Xa” (The Medicines Company (Leipzig) GmbH, priority 2010, dated 2013).

Structures are written as SMILES.

This data set has as its target thrombin (factor IIa) (Homo sapiens, UniProt P00734). Particulars: literature value; cited from earlier work.

As for `CC1CNc2c(cccc2S(=O)(=O)N[C@@H](CCCNC(=N)N)C(=O)N2CC[C@@H](C)C[C@@H]2C(=O)O)C1` (stereo partly shown) [Argatroban], the inhibition constant Ki is 0.027 to 0.039 µM.
